Assay results reported in patent US6936585B2, “Corticotropin releasing factor 2 receptor agonists” (priority 2002, dated 2005).

Legend:
CRF1R = molecular target: T1, CRF1R (Homo sapiens, UniProt P34998); experiment: CRF1R agonist activation (EC50 / Emax), called comparative CRF binding; assay type: cell-based; settings: read-out: CRF1R Emax
T1 sequence (P34998 24-415): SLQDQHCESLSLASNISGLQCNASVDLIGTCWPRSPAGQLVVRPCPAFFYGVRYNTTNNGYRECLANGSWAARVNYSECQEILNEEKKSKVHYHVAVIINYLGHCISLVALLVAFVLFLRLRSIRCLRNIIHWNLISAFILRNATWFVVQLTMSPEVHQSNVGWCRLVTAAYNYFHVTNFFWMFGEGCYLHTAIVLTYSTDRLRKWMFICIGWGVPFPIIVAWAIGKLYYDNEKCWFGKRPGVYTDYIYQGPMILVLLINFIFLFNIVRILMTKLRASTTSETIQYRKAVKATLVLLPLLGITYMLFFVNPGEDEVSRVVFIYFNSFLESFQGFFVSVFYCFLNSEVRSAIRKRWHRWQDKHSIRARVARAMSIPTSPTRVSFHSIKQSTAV
Procedure, shortened: (§1)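 Agonism is scored from cAMP rise, assayed in lysates or through CRE-driven reporter expression, after peptide contact with cells bearing human CRF2R or CRF1R, compared against vehicle-treated cells.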

CRF2R = molecular target: T2, CRF2R (Homo sapiens, UniProt Q13324); experiment: CRF2R agonist activation (EC50 / Emax), called comparative CRF binding; assay type: cell-based; settings: read-out: CRF2R Emax
T2 sequence (Q13324 1-411): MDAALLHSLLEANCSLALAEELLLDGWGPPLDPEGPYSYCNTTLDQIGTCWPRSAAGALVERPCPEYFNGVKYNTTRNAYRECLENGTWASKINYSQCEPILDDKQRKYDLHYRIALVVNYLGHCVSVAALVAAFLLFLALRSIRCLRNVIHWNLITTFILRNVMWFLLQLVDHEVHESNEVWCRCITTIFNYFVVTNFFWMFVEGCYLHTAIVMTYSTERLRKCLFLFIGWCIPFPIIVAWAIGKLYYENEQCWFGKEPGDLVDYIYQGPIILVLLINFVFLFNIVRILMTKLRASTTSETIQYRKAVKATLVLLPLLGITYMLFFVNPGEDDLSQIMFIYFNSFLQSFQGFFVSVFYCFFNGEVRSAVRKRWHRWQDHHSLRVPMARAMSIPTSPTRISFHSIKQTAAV
Procedure, shortened: as §1

SMILES: CC[C@H](C)[C@H](NC(=O)[C@@H](NC(=O)[C@H](CC(=O)O)NC(=O)[C@H](CC(C)C)NC(=O)[C@H](CC(C)C)NC(=O)[C@H](CC(C)C)NC(=O)[C@H](C)NC(=O)[C@H](CC(N)=O)NC(=O)[C@H](CC(N)=O)NC(=O)[C@H](C)NC(=O)[C@H](C)NC(=O)[C@H](CCC(N)=O)NC(=O)[C@H](CCC(N)=O)NC(=O)[C@H](CCCCN)NC(=O)[C@H](CCC(=O)O)NC(=O)[C@H](CCCCN)NC(=O)[C@H](CCC(=O)O)NC(=O)[C@H](CCC(N)=O)NC(=O)[C@H](CCCCN)NC(=O)[C@H](CCC(=O)O)NC(=O)[C@@H](NC(=O)[C@H](CCC(=O)O)NC(=O)[C@@H](NC(=O)[C@@H](NC(=O)[C@H](CCCCN)NC(=O)[C@H](CCCNC(=N)N)NC(=O)[C@H](CC(C)C)NC(=O)[C@H](CC(C)C)NC(=O)[C@H](Cc1c[nH]c2ccccc12)NC(=O)[C@H](Cc1ccc(O)cc1)NC(=O)[C@@H]1CCCN1C(=O)[C@H](CC(C)C)NC(=O)[C@H](CC(=O)O)NC(=O)[C@@H](NC(=O)[C@H](CO)NC(=O)[C@@H](NC(=O)[C@@H]1CCCN1C(=O)[C@@H]1CCCN1C(=O)CNC(=O)[C@@H]1CCC(=O)N1)[C@@H](C)CC)[C@@H](C)CC)C(C)C)[C@@H](C)CC)[C@@H](C)CC)[C@@H](C)O)C(N)=O [compound 311]
- Emax (CRF1R): 29.7%
- Emax (CRF2R): 100%
